This series concerns Daphnia magna. Put plainly: Aquatic toxicity screen, Daphnia sp. Acute Immobilization Test (OECD 202 / OPPTS 850.1010). Particulars: from 48-hour EC50. How it is done: The study is performed based on procedures in the OECD Guidelines for Testing of Chemicals, Guideline 202: Daphnia sp., Acute Immobilization Test, and U.S. EPA Guidelines, OPPTS Number 850.1010: Aquatic Invertebrate Acute Toxicity Test. The half maximal effective concentration (EC50) after 48 hours is reported below.

As to “unsaturated C11 fatty amine 5EO ethoxylate [Unsaturated C11 amine 5 EO ethoxylate]”, the “aquatic toxicity rating” value was “slightly toxic”.

For the origin of these results see patent publication US10694743B2, “Agricultural compositions with reduced aquatic toxicity” (priority 2014, dated 2020).
